# In patent US20140161816A1 (Janssen / Centocor, published 2014):
# Protein sequences, listed by entry. Tags and fused reporters are not part of them. Residues count along the entry.
# UniProt P01375, 77-233 limits assumed: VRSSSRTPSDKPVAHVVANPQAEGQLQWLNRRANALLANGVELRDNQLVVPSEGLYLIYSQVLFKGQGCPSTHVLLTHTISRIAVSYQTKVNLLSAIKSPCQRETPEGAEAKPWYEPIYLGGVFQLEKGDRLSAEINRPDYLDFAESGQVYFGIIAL
# B1: cA2 (anti-TNF chimeric antibody, Remicade) (antibody, V domains shown)
# VH: EVKLEESGGGLVQPGGSMKLSCVASGFIFSNHWMNWVRQSPEKGLEWVAEIRSKSINSATHYAESVKGRFTISRDDSKSAVYLQMTDLRTEDTGVYYCSRNYYGSTYDYWGQGTTLTVS
# VL: DILLTQSPAILSVSPGERVSFSCRASQFVGSSIHWYQQRTNGSPRLLIKYASESMSGIPSRFSGSGSGTDFTLSINTVESEDIADYYCQQSHSWPFTFGSGTNLEVK
# Target: T1, recombinant human TNFα (human, UniProt P01375 77-233, 125I label in the receptor binding assay)
# T1 construct: also called huTNF∀; tumor necrosis factor alpha
# Assay: competition: cA2 spiked into anti-IL-18 control supernatant, preincubated with 5 ng/ml 125I-TNFα, then binding to plate-coated p55-sf2, cpm bound by gamma counter
binder,measurement,value
B1,IC50 (read off the curve),~10 ng/mL
